Chains of the proteins cited; added tags and fusions are not shown.
UniProt P51686, whole entry: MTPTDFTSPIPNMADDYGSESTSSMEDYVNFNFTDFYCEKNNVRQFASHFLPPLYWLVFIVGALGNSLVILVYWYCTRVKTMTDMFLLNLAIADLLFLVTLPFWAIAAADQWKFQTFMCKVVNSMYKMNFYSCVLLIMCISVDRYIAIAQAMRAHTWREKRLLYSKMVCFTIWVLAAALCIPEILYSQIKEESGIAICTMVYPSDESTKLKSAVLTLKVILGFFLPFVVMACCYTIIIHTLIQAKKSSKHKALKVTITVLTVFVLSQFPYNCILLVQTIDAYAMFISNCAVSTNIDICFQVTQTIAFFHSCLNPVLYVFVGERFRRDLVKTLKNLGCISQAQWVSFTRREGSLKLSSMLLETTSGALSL

In patent US9969687B2, “Compounds useful as CCR9 modulators” (Norgine B.V., priority 2013, dated 2018):

Biological target: CCR9 (Homo sapiens (Human), UniProt P51686)
Assay: FLIPR calcium flux assay using MOLT4 cells, TECK stimulation
Conditions: MOLT4 cells (human T-cell line)
Protocol: Biological Activity: FLIPR Assay Using MOLT4 Cells
A calcium flux assay was used to determine the ability of the compounds to interfere with the binding between CCR9 and its chemokine ligand (TECK) in MOLT4 cells (a human T-cell line). MOLT4 cells were seeded (100,000 cells/well) in corning cell culture plates (Cat #3603) in assay buffer (1×HBSS, 20 mM HEPES) containing 2.5 mM Probenecid. The plate was centrifuged at 1200 rpm for 3 minutes and incubated at 37° C./5% CO2 for 2 hours. A 0.3× Fluo-4 NW calcium dye was prepared in assay buffer containing 5 mM Probenecid and stored in the dark. Each well was loaded with 25 μl of 0.3× Fluo-4 NW calcium dye and incubated at 37° C./5% CO2 for 60 minutes and then at room temperature for 30 minutes. A half-log serially diluted concentration response curve was prepared at a 4× concentration for each (10 μM-0.1 nM final assay concentration) and 25 μL of the compound then transferred to the cells (100 μL final volume) for 60 minutes prior to stimulation (30 minutes at 37° C./5% CO2 and 30 minutes at room temperature). TECK was diluted to 5× its EC50 in assay buffer (containing 0.1% [w/v] bovine serum albumin [BSA]) and 25 μL dispensed through the FLIPR instrument to stimulate the cells (125 μL final volume). The increased in intracellular calcium levels was measured with the FLIPR instrument. The potency of the compound as CCR9 antagonist was calculated as an IC50 using GraphPad Prism software (variable slope four parameter). The Ki of the compound was determined from the IC50 values using the following equation. IC50/1+(Agonist (TECK) conc. used in assay/EC50 of agonist (TECK) generated on day of experiment) Ki calculation: […]

| Ki [nM] | SMILES |
| --- | --- |
| 212 | Cc1ccc(CN2C(=O)c3c(Cl)ccc(NS(=O)(=O)c4ccc(C(C)(C)C)cc4)c3C2=O)c[n+]1[O-] |
| 76 | CC(C)(C)c1ccc(S(=O)(=O)Nc2ccc(Cl)c3c2C(=O)N(Cc2cc(C#N)c[n+]([O-])c2)C3=O)cc1 |
| 76 | COc1c[n+]([O-])c(N2C(=O)c3c(Cl)ccc(NS(=O)(=O)c4ccc(C(C)(C)C)cc4)c3C2=O)cc1C |
